From ChEMBL document CHEMBL1147615, “Design and synthesis of novel small molecule N/OFQ receptor antagonists” (2004)

Protein sequences, listed by entry. Tags and fused reporters are not part of them. Lines headed by an entry give the natural chain unless they say otherwise; changes in a name come on top.
UniProt P41146: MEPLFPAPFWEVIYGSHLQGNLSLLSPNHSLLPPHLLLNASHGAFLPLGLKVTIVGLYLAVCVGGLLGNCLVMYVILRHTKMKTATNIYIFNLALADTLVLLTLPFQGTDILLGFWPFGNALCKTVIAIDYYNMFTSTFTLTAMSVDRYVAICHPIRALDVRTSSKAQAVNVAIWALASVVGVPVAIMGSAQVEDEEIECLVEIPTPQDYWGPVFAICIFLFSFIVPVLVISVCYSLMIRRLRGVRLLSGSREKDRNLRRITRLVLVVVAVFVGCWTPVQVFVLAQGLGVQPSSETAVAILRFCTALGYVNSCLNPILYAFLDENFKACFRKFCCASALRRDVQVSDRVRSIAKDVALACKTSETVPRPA
UniProt P35372, whole entry, looked up: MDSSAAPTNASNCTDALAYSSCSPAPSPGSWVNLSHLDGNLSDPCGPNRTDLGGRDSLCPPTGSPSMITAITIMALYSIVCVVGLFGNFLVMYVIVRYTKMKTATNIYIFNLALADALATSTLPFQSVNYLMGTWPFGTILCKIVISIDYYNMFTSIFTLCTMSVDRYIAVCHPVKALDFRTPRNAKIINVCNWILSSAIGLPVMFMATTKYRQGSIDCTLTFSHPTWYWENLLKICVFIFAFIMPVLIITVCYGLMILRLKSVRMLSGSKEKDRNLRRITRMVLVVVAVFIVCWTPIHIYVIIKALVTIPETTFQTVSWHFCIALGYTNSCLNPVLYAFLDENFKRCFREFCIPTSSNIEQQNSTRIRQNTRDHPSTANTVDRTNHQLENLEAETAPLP

Assays:
Details in all cases: filed as antagonist
[1] = target: Nociceptin receptor (Homo sapiens) (UniProt P41146); experiment: Activity on Nociceptin/orphanin FQ (N/OFQ) receptor was determined by GTPgammaS functional assay using recombinant HEK293 cells.
[2] = target: Mu-type opioid receptor (Homo sapiens) (UniProt P35372); experiment: Activity was determined for the compound against the Mu opioid receptor by GTPgammaS functional assay using recombinant HEK293 cells.
[3] = target: Nociceptin receptor (Homo sapiens) (UniProt P41146); experiment: Activity on Nociceptin/orphanin FQ (N/OFQ) receptor was determined by GTPgammaS functional assay using recombinant HEK293 cells; PA: Partial antagonist
[4] = target: Mu-type opioid receptor (Homo sapiens) (UniProt P35372); experiment: Activity was determined for the compound against the Mu opioid receptor by GTPgammaS functional assay using recombinant HEK293 cells; PA: Partial antagonist

Row | Structure (SMILES) | Activity [1] | Activity [2] | Activity [3] | Activity [4]
1 | O=C1N[C@@H]2CCCC[C@H]2N1C1CCN(C2CCCCCCC2)CC1 | Antagonist | Antagonist | – | –
2 | CCN1C(=O)N(C2CCN(C3CCC4CCCCC4C3)CC2)[C@@H]2CCCC[C@H]21 (stereo partly specified) | Antagonist | Antagonist | – | –
3 | CCN1C(=O)N(C2CCN(Cc3ccc4ccccc4c3)CC2)[C@@H]2CCCC[C@H]21 | Antagonist | – | – | –
4 | O=C1N[C@@H]2CCCC[C@H]2N1C1CCN(CC2CCCCCCC2)CC1 | Antagonist | Antagonist | – | –
5 | CCN1C(=O)N(C2CCN(C3CCCCCCC3)CC2)[C@@H]2CCCC[C@H]21 | Antagonist | Antagonist | – | –
6 | O=C1N[C@@H]2CCCC[C@H]2N1C1CCN(C2CCC3CCCCC3C2)CC1 (stereo partly specified) | – | Antagonist | Partial antagonist | –
7 | CCN1C(=O)N(C2CCN(CC3CCCCCCC3)CC2)[C@@H]2CCCC[C@H]21 | Antagonist | Antagonist | – | –
8 | CCN1C(=O)N(C2CCN(C(C)CCC(C)C)CC2)[C@@H]2CCCC[C@H]21 (stereo partly specified) | Antagonist | – | – | Partial antagonist
9 | CCN1C(=O)N(C2CCN(C3CCC(C(C)C)CC3)CC2)[C@@H]2CCCC[C@H]21 (stereo partly specified) | Antagonist | Antagonist | – | –
10 | CCCC1CCC(N2CCC(N3C(=O)N[C@@H]4CCCC[C@H]43)CC2)CC1 (stereo partly specified) | – | Antagonist | Partial antagonist | –
11 | CCN1C(=O)N(C2CCN(Cc3ccccc3)CC2)[C@@H]2CCCC[C@H]21 | Antagonist | – | – | Partial antagonist
12 | O=C1N[C@@H]2CCCC[C@H]2N1C1CCN(Cc2ccccc2)CC1 | Antagonist | – | – | –
13 | CC(C)CCC(C)N1CCC(N2C(=O)N[C@@H]3CCCC[C@H]32)CC1 (stereo partly specified) | – | Antagonist | Partial antagonist | –
14 | CC(C)C1CCC(N2CCC(N3C(=O)N[C@@H]4CCCC[C@H]43)CC2)CC1 (stereo partly specified) | – | Antagonist | Partial antagonist | –
